Reference: US7192924B2, “Corticotropin releasing factor 2 receptor agonists” (priority 2002, dated 2007)
Like-named read-outs stand apart in the source and are kept apart here.

Experiments:
[1] = target: T1, CRF2R (Homo sapiens, UniProt Q13324); test: CRF2R agonist activity (EC50, Emax), called comparative CRF binding; format: cell-based
T1 sequence (Q13324 1-411): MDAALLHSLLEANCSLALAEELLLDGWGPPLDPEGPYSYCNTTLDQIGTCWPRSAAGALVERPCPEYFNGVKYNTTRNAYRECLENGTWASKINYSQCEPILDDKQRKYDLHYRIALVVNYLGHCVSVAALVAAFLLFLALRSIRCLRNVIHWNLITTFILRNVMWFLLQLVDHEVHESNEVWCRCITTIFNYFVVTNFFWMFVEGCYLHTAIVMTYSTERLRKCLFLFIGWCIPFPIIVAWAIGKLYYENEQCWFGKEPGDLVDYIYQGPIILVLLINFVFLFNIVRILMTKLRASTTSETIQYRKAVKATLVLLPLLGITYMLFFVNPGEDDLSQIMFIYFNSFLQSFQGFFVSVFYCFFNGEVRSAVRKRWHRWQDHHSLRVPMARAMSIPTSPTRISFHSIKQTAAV
Excerpt: (§1) The pharmacological activity and selectivity of the peptides of present invention can be determined using published test procedures. See, e.g, U.S. patent application Ser. No. 09/799,978. Because CRF2R and CRF1R are homologous proteins, it is expected that a certain proportion of agonists for CRF2R will also function as agonists of CRF1R. As discussed above, activation of CRF1R induces activation of the HPA axis since increased corticosteroid production leads to skeletal muscle atrophy. In most cases in which an increase in muscle mass or function is desired, it is not desirable to activate the HPA axis.
(§2) Because it is desirable to discriminate binding between CRF2R, as compared with CRF1R, the assays described above may be conducted using a cell, or membrane from a cell, which expresses only CRF2R or the assays can be conducted with a recombinant source of CRF2R. Cells expressing both forms of CRFR may be modified using homologous recombination to inactivate or otherwise disable the CRF1R gene. Alternatively, if the source of CRFR contains more than one CRFR type, the background signal produced by the receptor which is not of interest must be subtracted from the signal obtained in the assay. […] Known antagonists of CRFRs include, but, are not limited to, antalarmin (CRF1R selective), antisauvagine-30 (CRF2R selective) and astressin (nonselective for CRF1R/CRF2R).
(§3) Cell-based assays include the steps of contacting cells which express CRF1R or CRF2R with a peptide of the present invention or control and measuring activation of the CRFR by measuring the expression or activity of components of the CRFR signal transduction pathways.
(§4) As described in the background section above, CRFRs appear to couple through several different pathways including Gαs, Gαq or Gαi, depending upon the cell type. It is thought that agonist activation of CRFR allows the receptor to signal via any of these pathways, provided that the necessary pathway components are present in the particular cell type. Thus, to assay a particular peptide of the present invention for CRFR activation, an assay can use any of the signal transduction pathways as the readout even if the relevant cell type for treatment, in vivo, couples CRFR to skeletal muscle atrophy via a different pathway. […] Assays for measuring activation of these signaling pathways are known in the art.
(§5) For example, after contact with a peptide of the present invention, lysates of the cells can be prepared and assayed for induction of cAMP. cAMP is induced in response to Gαs activation. Because Gαs is activated by receptors other than CRFR and because a test peptide may be exerting its effect through CRFRs or by another mechanism, two control comparisons are relevant for determining whether the peptide increases levels of cAMP via activation of a CRFR. One control compares the cAMP level of cells contacted with the peptide and the cAMP level of cells contacted with a control compound (i.e., the vehicle in which the peptide is dissolved).
(§6) In one example, cAMP induction is measured with the use of DNA constructs containing the cAMP responsive element linked to any of a variety of reporter genes can be introduced into cells expressing CRFRs. Such reporter genes include, but are not limited to, chloramphenicol acetyltransferase (CAT), luciferase, glucuronide synthetase, growth hormone, fluorescent proteins (e.g., Green Fluorescent Protein), or alkaline phosphatase. Following exposure of the cells to the peptide, the level of reporter gene expression can be quantitated to determine the peptide's ability to increase cAMP levels and thus determine the peptide's ability to activate the CRFR.
(§7) In addition to using cells expressing full length CRFRs, cells can be engineered which express CRFRs containing the ligand binding domain of the receptor coupled to, or physically modified to contain, reporter elements or to interact with signaling proteins.

[2] = target: T2, CRF1R (Homo sapiens, UniProt P34998); test: CRF1R agonist activity (EC50, Emax), called comparative CRF binding; format: cell-based
T2 sequence (P34998 24-415): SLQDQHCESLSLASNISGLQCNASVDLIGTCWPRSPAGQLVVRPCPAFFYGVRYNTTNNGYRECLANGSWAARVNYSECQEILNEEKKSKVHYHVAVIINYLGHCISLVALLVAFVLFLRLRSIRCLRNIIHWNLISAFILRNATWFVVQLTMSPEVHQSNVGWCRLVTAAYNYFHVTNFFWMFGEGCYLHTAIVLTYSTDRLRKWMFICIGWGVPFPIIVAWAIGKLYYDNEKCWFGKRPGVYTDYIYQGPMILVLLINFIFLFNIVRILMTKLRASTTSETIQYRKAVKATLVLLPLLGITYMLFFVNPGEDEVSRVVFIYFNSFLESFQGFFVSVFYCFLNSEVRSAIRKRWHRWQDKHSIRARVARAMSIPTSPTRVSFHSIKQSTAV
Excerpt: as §1, §2, §3, §4, §5, §6, §7

| Compound | EC50 [1] [µM] | EC50 [2] [µM] | EC50 ([1]; read-out: CRF2R EC50) [µM] | EC50 ([2]; read-out: CRF1R EC50) [µM] |
| --- | --- | --- | --- | --- |
| CC[C@H](C)[C@H](NC(=O)[C@@H](NC(=O)[C@H](CC(=O)O)NC(=O)[C@H](CC(C)C)NC(=O)[C@H](CC(C)C)NC(=O)[C@H](CC(C)C)NC(=O)[C@H](CCCNC(=N)N)NC(=O)[C@H](CC(N)=O)NC(=O)[C@H](CC(N)=O)NC(=O)[C@H](C)NC(=O)[C@H](C)NC(=O)[C@H](CCC(N)=O)NC(=O)[C@H](CCC(N)=O)NC(=O)[C@H](CCCCN)NC(=O)[C@H](CCC(=O)O)NC(=O)[C@H](CCCCN)NC(=O)[C@H](CCC(=O)O)NC(=O)[C@H](CCC(N)=O)NC(=O)[C@H](CCCCN)NC(=O)[C@H](CCC(=O)O)NC(=O)[C@@H](NC(=O)[C@H](CCC(=O)O)NC(=O)[C@@H](NC(=O)[C@H](CCSC)NC(=O)[C@H](CCCCN)NC(=O)[C@H](CCCNC(=N)N)NC(=O)[C@H](CC(C)C)NC(=O)[C@H](CC(C)C)NC(=O)[C@H](Cc1ccccc1)NC(=O)[C@H](Cc1c[nH]c2ccccc12)NC(=O)[C@@H]1CCCN1C(=O)[C@H](CC(C)C)NC(=O)[C@H](CC(=O)O)NC(=O)[C@@H](NC(=O)[C@H](CO)NC(=O)[C@@H](NC(=O)[C@@H]1CCCN1C(=O)[C@@H]1CCCN1C(=O)CNC(=O)[C@@H]1CCC(=O)N1)[C@@H](C)CC)[C@@H](C)CC)[C@@H](C)CC)[C@@H](C)CC)[C@@H](C)O)C(N)=O [compound 187] | 0.0103 | 0.0316 |  |  |
| CC[C@H](C)[C@H](NC(=O)[C@@H](NC(=O)[C@H](CC(=O)O)NC(=O)[C@H](CC(C)C)NC(=O)[C@H](CC(C)C)NC(=O)[C@H](CC(C)C)NC(=O)[C@H](CCCNC(=N)N)NC(=O)[C@H](CC(N)=O)NC(=O)[C@H](CC(N)=O)NC(=O)[C@H](C)NC(=O)[C@H](C)NC(=O)[C@H](CCC(N)=O)NC(=O)[C@H](CCC(N)=O)NC(=O)[C@H](CCCCN)NC(=O)[C@H](CCC(=O)O)NC(=O)[C@H](CCCCN)NC(=O)[C@H](CCC(=O)O)NC(=O)[C@H](CCC(N)=O)NC(=O)[C@H](CCCCN)NC(=O)[C@H](CCC(=O)O)NC(=O)[C@@H](NC(=O)[C@H](CCC(=O)O)NC(=O)[C@@H](NC(=O)[C@H](CCSC)NC(=O)[C@H](CCCCN)NC(=O)[C@H](CCCNC(=N)N)NC(=O)[C@H](CC(C)C)NC(=O)[C@H](CC(C)C)NC(=O)[C@H](Cc1ccc(O)cc1)NC(=O)[C@H](CC(N)=O)NC(=O)[C@@H]1CCCN1C(=O)[C@H](CC(C)C)NC(=O)[C@H](CC(=O)O)NC(=O)[C@@H](NC(=O)[C@H](CO)NC(=O)[C@@H](NC(=O)[C@@H]1CCCN1C(=O)[C@@H]1CCCN1C(=O)CNC(=O)[C@@H]1CCC(=O)N1)[C@@H](C)CC)[C@@H](C)CC)[C@@H](C)CC)[C@@H](C)CC)[C@@H](C)O)C(N)=O [compound 64] |  |  | 0.0633 | 0.0689 |
| CC[C@H](C)[C@H](NC(=O)[C@@H](NC(=O)[C@H](CC(=O)O)NC(=O)[C@H](CC(C)C)NC(=O)[C@H](CC(C)C)NC(=O)[C@H](CC(C)C)NC(=O)[C@H](CCCNC(=N)N)NC(=O)[C@H](CC(N)=O)NC(=O)[C@H](CC(N)=O)NC(=O)[C@H](C)NC(=O)[C@H](C)NC(=O)[C@H](CCC(N)=O)NC(=O)[C@H](CCC(N)=O)NC(=O)[C@H](CCCCN)NC(=O)[C@H](CCC(=O)O)NC(=O)[C@H](CCCCN)NC(=O)[C@H](CCC(=O)O)NC(=O)[C@H](CCC(N)=O)NC(=O)[C@H](CCCCN)NC(=O)[C@H](CCC(=O)O)NC(=O)[C@@H](NC(=O)[C@H](CCC(=O)O)NC(=O)[C@@H](NC(=O)[C@H](CCSC)NC(=O)[C@H](CCCCN)NC(=O)[C@H](CCCNC(=N)N)NC(=O)[C@H](CC(C)C)NC(=O)[C@H](CC(C)C)NC(=O)[C@H](Cc1c[nH]cn1)NC(=O)[C@H](C)NC(=O)[C@@H]1CCCN1C(=O)[C@H](CC(C)C)NC(=O)[C@H](CC(=O)O)NC(=O)[C@@H](NC(=O)[C@H](CO)NC(=O)[C@@H](NC(=O)[C@@H]1CCCN1C(=O)[C@@H]1CCCN1C(=O)CNC(=O)[C@@H]1CCC(=O)N1)[C@@H](C)CC)[C@@H](C)CC)[C@@H](C)CC)[C@@H](C)CC)[C@@H](C)O)C(N)=O [compound 206] |  |  | 0.0305 | 0.697 |
